From ChEMBL document CHEMBL2424615, “Design, synthesis, and characterization of novel tetrahydropyran-based bacterial topoisomerase inhibitors with potent anti-gram-positive activity” (J Med Chem, 2013) come the findings set out here.

The assay in a line: Inhibition of wild type Escherichia coli ATCC 25922 DNA topoisomerase-4 subunit 2ParC/2ParE assessed as pBR322 relaxation after 1 hr.

One may read the IC50 as the concentration that inhibits the measured activity by half.

For `O=C(O)c1cn(C2CC2)c2cc(N3CCNCC3)c(F)cc2c1=O` [CIPROFLOXACIN], the half-inhibitory concentration (IC50) was 8 µM.
